The assay deals with experimental amnestic rats. The assay can be described thus: passive avoidance response of rats (scopolamine-induced amnesia), retention test. The assay is classed as in vivo, male Wister SLC rat. Particulars: scopolamine 3 mg/kg i.p. As for the experimental part: The method of assay of the anti-amnestic action was carried out according to the method reported by A. Kubota et al. in Int. […] A passive avoidance chamber used in this test was surrounded with inside-visible transparent plastic plates and included an electrifiable grid floor (30 cm in length and 30 cm in width) capable of being derivered with an electric current of 1.7 mA in strength for electric foot shock and a platform (15 cm in length, 15 cm in width and 4 cm in height) placed at the right back corner thereof. A male Wister SLC rat (weighing 100-150 g) was placed in the passive avoidance chamber and, when he stepped down on the floor, the electric current was sent to the grid continuously until he went up on the platform. Repeating this test with another rat, the rats stayed on the platform for more than 15 seconds were taken out of the chamber, being regarded to have learned the situation. This electric shock was normally 2 or 3 times. To avoid any difference in the rats, those required 10 seconds for the first step-down and those stepped down on the floor at least 5 times were excluded. Among the learned or trained rats, the first control group of them were intraperitoneally administered with 0.5% CMC solution and the other groups of them were intraperitoneally administered with scopolamine hydrobromide in a dose of 3 mg/Kg to prepare experimental amnestic rats. The prolinal derivatives of the general formula to be tested were in each case intraperitoneally or orally administered to the rats in an amount shown in Table 1 or 2 one after completion of the learning. In each case, the polinal derivatives are used as having been dissolved or suspended in a 0.5% CMC solution.

With `O=C[C@@H]1CCCN1C(=O)[C@@H]1CCCN1C(=O)OCc1ccccc1` [N--Benzyloxycarbonyl-prolyl-prolinal, N-benzyloxycarbonyl-prolyl-prolinal], under “2.2 mg/kg i.p. after training”, the “Retention Test Latency, 24 hr” value is 192.0 s and the “Retention Test Latency, 48 hr” value was 141.5 s. Besides, for the setting “2.2 mg/kg p.o. after training”, the “Retention Test Latency, 24 hr” value is 140.2 s and the “Retention Test Latency, 48 hr” value was 102.3 s.

Source of the values: patent US4687778A, “Anti-amnestic agent” (Kabushiki Kaisha Yakult Honsha, priority 1984, dated 1987).
